Values of other authors as cited in US4910012A, “Products containing Tc-99-m-ωalkylphosphinico-1-hydroxyalkane-1,1-diphosphonates for bone scintigraphy and a process for the preparation of these products” (Hoechst Aktiengesellschaft, priority 1988, dated 1990).

Conditions: in vivo; cited from earlier work

Tc-99m-labelled stannous ethane-1-hydroxy-1,1-diphosphonate [Tc-99m-HEDP]
clearance from the plasma: significantly quicker clearance
